This note sets out measurements from ChEMBL document CHEMBL1147608, “SAR development of polycyclic guanine derivatives targeted to the discovery of a selective PDE5 inhibitor for treatment of erectile dysfunction” (Bioorg Med Chem Lett, 2004).

The structures appear in SMILES notation.

The assay deals with cGMP-specific 3',5'-cyclic phosphodiesterase (Homo sapiens, UniProt O76074).

Compound `CCN1C(=O)c2[nH]c(Cc3ccccc3)nc2N2C[C@@H](Cc3ccccc3)N=C12` showed an IC50 of 4.5 nM. Turning to `CCN1C(=O)c2c(ncn2Cc2ccc(OC)c(Cl)c2)N2C1=N[C@@H]1CCC[C@@H]12`, half-maximal inhibition (IC50) required 8.3 nM.

Usually IC50 stands for the concentration that gives 50% inhibition. Lower therefore signals greater potency in that assay.
